Source: patent publication US11667949B2, “Reporter construct and biosensor for interferon second messenger 2-5A” (The Trustees of Princeton University, priority 2018, dated 2023)

System: A549 cells
Test: Live cell 2-5A measurements in A549 cells stably expressing FLAG-V6 biosensor
Type: cell-based, human
Details: IFN-β pre-treatment 24 hours before poly-IC
Procedure: Live cell 2-5A measurements in stable cell lines expressing V6 or V6-Y312A reporters: A549 or HeLa cells stably expressing V6 or V6-Y312A control reporters were seeded at a density of 1·10^4 /well on TC-treated, clear flat bottom white 96-well plates. Before transfection with poly-IC, cells were pre-treated with 100 μM D-luciferin ethyl ester (1% DMSO) (f/c) (Marker Gene Technologies). […] Dilutions of poly-IC were made by diluting the poly-IC/lipofectamine complexes. Luminescence measurements were taken in repeat-mode using plate reader at time intervals shown on the figures. After three hours, fresh D-luciferin ethyl ester (100 μM) was re-supplied at every hour to ensure excess reporter substrate. Luminescence acquisition time was one minute per well. For IFN-β pre-treatment, a dose of 1000 U/mL (f/c) was used 24 hours before poly-IC treatment.

B1: IFN-β: recombinant IFN-β (protein, UniProt P01574 22-187, looked up)
Interferon beta: MSYNLLGFLQRSSNFQCQKLLWQLNGRLEYCLKDRMNFDIPEEIKQLQQFQKEDAALTIYEMLQNIFAIFRQDSSSTGWNETIVENLLANVYHQINHLKTVLEEKLEKEDFTRGKLMSSLHLKRYYGRILHYLKAKEYSHCAWTIVRVEILRNFYFINRLTGYLRN
How did the “effect of priming on 2-5A synthesis” value turn out when B1 was run?
The value was ≤ 2 fold.
